Measured values: PubChem BioAssay AID1347041 (National Center for Advancing Translational Sciences (NCATS), 2019)
Several values for one entry are separate records, joined by “and”; a condition that tells them apart may be missing. Equal values may be shown once. This is a selection; strong and weak results do not stand in their true shares. Some results for these compounds are left out of this collection, so the calls shown say nothing about other tests. Activity calls are given as the source filed them. No stated cut-off is given here; in the data, active means activity change below about -30%; inconclusive means mostly about -25% to -30%; inactive means weaker than that.

These molecules were tested against L-lactate dehydrogenase A chain (Homo sapiens) (UniProt P00338) (assay: qHTS assay for inhibitors of human lactate dehydrogenase). Conditions: purified LDHA, NADH/diaphorase-resazurin fluorescence; hits give low values.
Source text: LDH is a key glycolytic enzyme that catalyzes the final step in the glycolytic pathway, reducing pyruvate to lactate and regenerating NAD+ equivalents necessary for continued glycolysis. LDHA has been linked to the carcinogenesis and malignancy in numerous forms of cancers and many other diseases. Consequently, both pharma and academia have invested in significant research efforts to identify small molecule therapeutics. Such attempts have been stalled or abandoned due to limited success in discovering potent and drug-like inhibitors that can be utilized to validate LDHA in vivo as a drug target, a necessary step toward advancing such a molecule towards the clinic Towards this goal we designed and performed a quantitative high-throughput screening (qHTS) campaign to discover novel compounds that are potent inhibitors of LDHA enzyme activity and cancer cell line growth.
The assay was optimized to 1536-well plates. Briefly, 3 µL of human lactate dehydrogenase 5 (#A38558H, Meridian Life Science, Inc., Memphis, TN) in LDH assay buffer (200 mM Tris HCl pH 7.4, 100 microM EDTA and 0.01% Tween-20) was added to a black solid bottom 1536-well assay plate (Greiner Bio-One) using a BioRAPTR FRD dispenser (Beckman Coulter, Brea, CA). A 1536-well pintool dispenser outfitted with 20 nL pins (Wako Automation, San Diego, CA) was used to transfer 23 nL of DMSO-solubilized compound (both library and vehicle controls) to each 1536-well assay plate. Following compound transfer, 1 µL of substrate solution containing NADH and sodium pyruvate (Sigma-Aldrich, St. Louis, MO) in LDH assay buffer was dispensed via BioRAPTR FRD to initiate the reaction. Final concentrations in the 4 microL reaction volume were 2 nM LDHA enzyme, 0.06 mM NADH and 0.2 mM sodium pyruvate. Following a 5 minute incubation period at room temperature, 1 µL of detection reagent (C. kluyveri diaphorase (Sigma-Aldrich) and resazurin sodium salt (Sigma-Aldrich) in LDH assay buffer) was added to a total volume of 5 µL. Final concentrations of detection reagents were 0.133 mg/mL diaphorase and 37 µM resazurin. Plates were immediately transferred to a ViewLux microplate imager (PerkinElmer, Waltham, MA), and any resulting resorufin fluorescence was measured (ex540, em590 nm) at 0 and 20 minutes. Fluorescence was normalized using enzyme-free and DMSO-treated control wells on each plate.
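Further: values are at about 110 or 230 µM; plate controls were DMSO wells for no effect and wells without enzyme for full effect.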

Compound	activity change
CC(CCN(CCCl)CCCl)c1ccccc1 (stereo not drawn)	inactive: -9.51%
O=C(CCC1CCCCC1)N1CCN(C/C=C/c2ccccc2)CC1	inactive: 10.9%
O=C(NCC1(N2CCCCC2)CCCCC1)c1cc([N+](=O)[O-])ccc1Cl	inactive: -6.85%
CN1[C@@H]2CC[C@H]1CC(OC(=O)C(O)(c1ccccc1)c1ccccc1)C2 (stereo partly drawn)	inactive: -0.316%
COc1cc(SC)ccc1C(=O)NCC1(N(C)C)CCCCC1	inactive: -6.39%
CCN(CC)CC(C)C(C)OC(=O)C(O)(c1ccccc1)c1ccccc1 (stereo not drawn)	inactive: -0.58%
CN(C)C1(CNC(=O)c2cccc(Cl)c2)CCCCC1	inactive: -2.34%
CC(C)N1C(=O)CC2(CCN(CCOC(=O)C(O)(c3ccccc3)c3ccccc3)CC2)C1=O	inactive: -0.962%
Cc1ccc(C(=O)NCC2(N3CCCCC3)CCCCC2)cc1	inactive: -4.81%
CN(C)C1(CNC(=O)c2ccccc2F)CCCCC1	inactive: 3.83%
CN(C)c1ccc(C(=O)NCC2(N(C)C)CCCCC2)cc1	inactive: -4.14%
CN(C)C1CCCC1OC(=O)C(O)(c1ccccc1)c1ccccc1 (stereo not drawn)	inactive: -5.64%
Cc1ccccc1C(=O)NCC1(N2CCCCC2)CCCCC1	inactive: -4.08%
CN(C)C1(CNC(=O)c2ccccc2[N+](=O)[O-])CCCCC1	inactive: -10.5%
CCCCOc1ccccc1C(=O)NCC1(N(C)C)CCCCC1	inactive: 5.51%
CCOc1ccccc1C(=O)NCC1(N(C)C)CCCCC1	inactive: -4.18%
O=C(NCC1(N2CCCCC2)CCCCC1)c1cc(F)c(F)cc1Cl	inactive: -6.35%
CN(C)CCOC(=O)C(O)(c1ccccc1)C1CCCCC1 (stereo not drawn)	inactive: 3.02%
C=CCN1CCN(CCOC(=O)C(O)(c2ccccc2)c2ccccc2)CC1	inactive: 0.474%
CN(C)C1(CNC(=O)c2cccs2)CCCCC1	inactive: 9.66%
CCOc1cccc(C(=O)NCC2(N(C)C)CCCCC2)c1	inactive: -3.76%
COc1ccc(C(=O)NCC2(N(C)C)CCCCC2)cc1	inactive: -5.11%

Compound	activity change
O=C(NCC1(N2CCCCC2)CCCCC1)c1cccc(Br)c1	inactive: -6.42%
O=C(NCC1(N2CCOCC2)CCCCC1)c1cc(=O)c2ccccc2o1	inactive: -2.58%
CCN1CCCC(OC(=O)C2(O)c3ccccc3C=Cc3ccccc32)C1 (stereo not drawn)	inactive: -7.46%
Cc1cc(C(=O)NCC2(N3CCCCC3)CCCCC2)ccc1[N+](=O)[O-]	inactive: -5.06%
O=C(CBr)c1ccc(Cl)cc1	inactive: 0.146%
CN(C)C1(CNC(=O)c2ccc(Br)cc2)CCCCC1	inactive: -13.7%
COc1cc(C(=O)NCC2(N(C)C)CCCCC2)c([N+](=O)[O-])cc1OC	inactive: 1.02%
COc1ccc(Cl)cc1C(=O)NCC1(N(C)C)CCCCC1	inactive: -2.88%
COc1cccc(C(=O)NCC2(N3CCCCC3)CCCCC2)c1	inactive: -5.91%
COc1ccc(C(=O)NCC2(N(C)C)CCCCC2)cc1Cl	inactive: -4.09%
O=C(NCC1(N2CCCCC2)CCCCC1)c1cccc(Cl)c1	inactive: -3.74%
COc1cccc(C(=O)NCC2(N3CCOCC3)CCCCC2)c1	inactive: -2.74%
O=C(OC1CN2CCC1CC2)C(CO)(c1ccccc1)c1ccccc1 (stereo not drawn)	inactive: -2.12%
CC(C)COc1ccc(C(=O)NCC2(N(C)C)CCCCC2)cc1	inactive: -2.3%
C=C(C)C#CC(O)(C(=O)OC1CCN(C)CC1)c1ccccc1 (stereo not drawn)	inactive: 0.843%
COc1ccc(Br)c(C(=O)NCC2(N3CCCCC3)CCCCC2)c1	inactive: -4.66%
Cc1cccc(C(=O)NCC2(N(C)C)CCCCC2)c1	inactive: -7.95%
COc1cc(C(=O)NCC2(N(C)C)CCCCC2)cc(OC)c1OC	inactive: -1.57%
O=C(OCCN1CCCC1)C(O)(c1ccccc1)c1ccccc1	inactive: -5.45%
CC(C)Oc1ccc(C(=O)NCC2(N(C)C)CCCCC2)cc1	inactive: -13.1% and inactive: -7.02%
CN(C)c1cccc(C(=O)NCC2(N(C)C)CCCCC2)c1	inactive: 4.74%
